# Test results published in patent US7053101B2, “1,3,8-triazaspiro[4,5]decan-4-one derivatives useful for the treatment of ORL-1 receptor mediated disorders” (dated 2006).
# Biological target: human nociceptin receptor (ORL-1) (Homo sapiens, UniProt P41146)
# Experiment: nociceptin receptor binding assay (125I-Tyr14-nociceptin displacement, HEK293 cell membranes)
# Settings: for IC50: 125I-Tyr14-nociceptin 0.5 nM, HEK293 cell membranes; for % Inh @ 10 μM: 10 μM test compound; for % Inh @ 10 μM / % Inh @ 100 μM: inhibition of 125I-Tyr14-nociceptin binding; for % Inh @ 100 μM: 100 μM test compound
SMILES,IC50 [nM],% Inh @ 10 μM,% Inh @ 100 μM
O=C1NCN(c2ccccc2)C12CCN(Cc1cccc(-c3ccccc3)c1)CC2,4100,,
O=C1NCN(c2ccccc2)C12CCN(Cc1cccc(COc3ccc(Cl)cc3)c1)CC2,786,,
O=C1NCN(c2ccccc2)C12CCN(Cc1cccc(-c3ccsc3)c1)CC2,608,,
O=C1NCN(c2ccccc2)C12CCN(CCc1ccccc1-c1ccsc1)CC2,7.6,,
O=C1NCN(c2ccccc2)C12CCN(Cc1ccccc1-c1cc(Cl)cc(Cl)c1)CC2,190,,
CC(=O)c1ccc(-c2ccccc2CN2CCC3(CC2)C(=O)NCN3c2ccccc2)s1,3200,,
CN(C)CCN1CN(c2ccccc2)C2(CCN(Cc3ccccc3-c3cccs3)CC2)C1=O,2.5,,
Cc1ccc(-c2ccccc2CN2CCC3(CC2)C(=O)NCN3c2ccccc2)cc1,960,,
N#Cc1ccc(-c2ccccc2CN2CCC3(CC2)C(=O)NCN3c2ccccc2)s1,1300,,
O=C1NCN(c2ccccc2)C12CCN(Cc1ccccc1-c1ccc(Cl)s1)CC2,201,,
O=C1c2ccccc2C(=O)N1Cc1cccc(CN2CCC3(CC2)C(=O)NCN3c2ccccc2)c1,> 10000,28%,
O=C1NCN(c2ccccc2)C12CCN(CCc1cccc(-c3cccs3)c1)CC2,338,,
O=C1NCN(c2ccccc2)C12CCN(Cc1ccc(CN3CCCc4ccccc43)cc1)CC2,1630,,
O=C1NCN(c2ccccc2)C12CCN(Cc1cccc(-c3cc(Cl)cc(Cl)c3)c1)CC2,574,,
O=C1NCN(c2ccccc2)C12CCN(Cc1ccccc1-c1ccsc1)CC2,12,,
Cn1ncc(-c2cccs2)c1CN1CCC2(CC1)C(=O)NCN2c1ccccc1,300,,
O=C1NCN(c2ccccc2)C12CCN(Cc1ccccc1/C=C/c1ccccc1)CC2,158,,
O=C1NCN(c2ccccc2)C12CCN(Cc1cccc(COc3ccc(O)cc3)c1)CC2,2200,,
O=C1NCN(c2ccccc2)C12CCN(Cc1ccccc1-c1cc3ccccc3o1)CC2,> 10000,43%,47%
CN(C)c1ccc(-c2ccccc2CN2CCC3(CC2)C(=O)NCN3c2ccccc2)cc1,> 10000,24%,19.5%
O=C1CCCCN1Cc1cccc(CN2CCC3(CC2)C(=O)NCN3c2ccccc2)c1,1230,,
COC(=O)CN1CN(c2ccccc2)C2(CCN(Cc3ccccc3-c3cccs3)CC2)C1=O,1,,
O=C1NCN(c2ccccc2)C12CCN(Cc1ccc(F)cc1-c1cccs1)CC2,6,,
CCN(CC)CCN1CN(c2ccccc2)C2(CCN(CCc3ccccc3-c3cccs3)CC2)C1=O,22,,

SMILES,IC50 [nM],% Inh @ 10 μM,% Inh @ 100 μM
O=C1NCN(c2ccccc2)C12CCN(Cc1cccc(COc3ccccc3)c1)CC2,348,,
COc1ccc(-c2cccc(CN3CCC4(CC3)C(=O)NCN4c3ccccc3)c2)cc1,346,,
O=C1NCN(c2ccccc2)C12CCN(Cc1ccc(CN3CCCC3)cc1)CC2,> 10000,16%,
O=C1NCN(c2ccccc2)C12CCN(CCc1ccc(-c3cccs3)cc1)CC2,790,,
O=C1NCN(c2ccccc2)C12CCN(Cc1cccc(CN3CCCc4ccccc43)c1)CC2,830,,
COC(=O)CN1CN(c2ccccc2)C2(CCN(CCc3ccccc3-c3cccs3)CC2)C1=O,12,,
CC1CN(Cc2ccccc2-c2ccco2)CCC12C(=O)NCN2c1ccc(F)cc1 (stereo not shown),2.6,,
Cc1noc(C)c1-c1ccccc1CN1CCC2(CC1)C(=O)NCN2c1ccccc1,2700,,
O=C1NCN(c2ccccc2)C12CCN(Cc1ccc(-c3ccc(Cl)cc3)o1)CC2,133,,
O=C1NCN(c2ccccc2)C12CCN(Cc1sccc1-c1cccs1)CC2,11,,
O=C1NCN(c2ccccc2)C12CCN(Cc1cccc(-c3cccc(C(F)(F)F)c3)c1)CC2,264,,
CN(C)CCN1CN(c2ccccc2)C2(CCN(CCc3ccccc3-c3cccs3)CC2)C1=O,14,,
CN1CN(c2ccccc2)C2(CCN(Cc3ccccc3-c3ccco3)CC2)C1=O,3.1,,
O=C1NCN(c2ccccc2)C12CCN(Cc1cccc(COc3cccc4c3CCCC4)c1)CC2,750,,
COc1ccc(-c2ccc(CN3CCC4(CC3)C(=O)NCN4c3ccccc3)cc2)cc1,194,,
NC(=O)CN1CN(c2ccccc2)C2(CCN(Cc3ccccc3-c3cccs3)CC2)C1=O,2.4,,
Cc1cc(N2CNC(=O)C23CCN(Cc2ccccc2-c2cccs2)CC3)ccc1Cl,61,,
O=C1NCN(c2ccccc2)C12CCN(CCCc1ccccc1-c1cccs1)CC2,3,,
O=C1NCN(c2ccccc2)C12CCN(Cc1c(F)cccc1-c1ccsc1)CC2,13,,
O=C1NCN(c2ccccc2)C12CCN(Cc1cccc(CN3CCCC3)c1)CC2,> 10000,11%,
COc1ccc(-c2ccccc2CN2CCC3(CC2)C(=O)NCN3c2ccccc2)cc1,305,,
O=C(O)CN1CN(c2ccccc2)C2(CCN(CCc3ccccc3-c3cccs3)CC2)C1=O,79,,
CCN(CC)CCN1CN(c2ccccc2)C2(CCN(Cc3ccccc3-c3cccs3)CC2)C1=O,8,,
O=C1NCN(c2ccccc2)C12CCN(Cc1ccc(-c3ccccc3)cc1)CC2,484,,

SMILES,IC50 [nM],% Inh @ 10 μM,% Inh @ 100 μM
O=C1NCN(c2ccccc2)C12CCN(Cc1cccc(Cn3ccnc3)c1)CC2,1700,,
O=C1NCN(c2ccccc2)C12CCN(Cc1ccc(COc3ccccc3)cc1)CC2,> 10000,13%,
O=C1NCN(c2ccccc2)C12CCN(Cc1cccc(CN3CCCCC3)c1)CC2,3490,52%,
O=C1NCN(c2ccccc2)C12CCN(CCCc1ccccc1-c1ccsc1)CC2,11,,
O=C1NCN(c2ccccc2)C12CCN(Cc1cccc(-c3cccnc3)c1)CC2,1110,,
O=C1NCN(c2ccccc2)C12CCN(Cc1ccccc1-c1cccc(C(F)(F)F)c1)CC2,271,,
O=C1NCN(c2ccccc2)C12CCN(Cc1ccccc1-c1ccc3[nH]ccc3c1)CC2,1100,,
O=C(Oc1ccc(OCc2cccc(CN3CCC4(CC3)C(=O)NCN4c3ccccc3)c2)cc1)c1ccccc1,2700,,
Cc1ccc(-c2cccc(CN3CCC4(CC3)C(=O)NCN4c3ccccc3)c2)cc1,761,,
O=C1NCN(c2cccc(Cl)c2)C12CCN(Cc1ccccc1-c1ccco1)CC2,43,,
O=C1NCN(c2ccccc2)C12CCN(Cc1ccc(-c3ccsc3)cc1)CC2,362,,
O=C1NCN(c2ccc(F)cc2)C12CCN(Cc1ccccc1-c1cccs1)CC2,8.2,,
Cc1cc(N2CNC(=O)C23CCN(Cc2ccccc2-c2ccco2)CC3)ccc1Cl,48,,
O=C1NCN(c2ccc(F)cc2)C12CCN(CCCCc1ccccc1-c1cccs1)CC2,740,,
O=C1NCN(c2ccccc2)C12CCN(Cc1cccc(COc3ccc([N+](=O)[O-])cc3)c1)CC2,340,,
O=C1NCN(c2ccccc2)C12CCN(Cc1ccccc1-c1nccs1)CC2,32,,
O=C1NCN(c2ccccc2)C12CCN(Cc1ccccc1-c1cccc3ccccc13)CC2,> 10000,insoluble,insoluble
O=C1NCN(c2ccccc2)C12CCN(Cc1ccccc1-c1ccncc1)CC2,1300,,
O=C1NCN(c2ccccc2)C12CCN(Cc1ccc(CN3CCc4ccccc4C3)cc1)CC2,1800,,
O=C1NCN(c2ccccc2)C12CCN(Cc1ccc(CN3CCCCC3)cc1)CC2,> 10000,30%,
Cc1cc(N2CNC(=O)C23CCN(Cc2ccccc2-c2cccs2)CC3)cc(C)c1F,109,,
O=C1NCN(c2ccccc2)C12CCN(Cc1ccccc1-c1cccs1)CC2,6,,
O=C1NCN(c2ccccc2)C12CCN(Cc1ccc(OC3CCCc4ccccc43)cc1)CC2 (stereo not shown),388,,
O=C1NCN(c2ccccc2)C12CCN(Cc1ccc(-c3cccc(C(F)(F)F)c3)cc1)CC2,252,,

SMILES,IC50 [nM],% Inh @ 10 μM,% Inh @ 100 μM
O=C1NCN(c2ccccc2)C12CCN(Cc1cccc(CN3CCc4ccccc4C3)c1)CC2,> 10000,33%,
O=C1NCN(c2cccc(Br)c2)C12CCN(Cc1ccccc1-c1ccco1)CC2,23,,
O=C1NCN(c2ccccc2)C12CCN(Cc1cccc(OC3CCCc4ccccc43)c1)CC2 (stereo not shown),632,,
O=C1NCN(c2ccccc2)C12CCN(Cc1ccccc1-c1ccc3ccccc3c1)CC2,> 10000,28%,31%
O=C1NCN(c2ccccc2)C12CCN(Cc1cccc(COc3cccc4ccccc34)c1)CC2,241,,
O=C1NCN(c2ccccc2)C12CCN(CCOc1ccccc1-c1ccccc1)CC2,940,,
O=C1NCN(c2ccccc2)C12CCN(Cc1ccc(F)cc1-c1ccsc1)CC2,8,,
O=C1N(CCO)CN(c2ccccc2)C12CCN(Cc1ccccc1-c1cccs1)CC2,1.1,,
O=C1NCN(c2ccccc2)C12CCN(Cc1cccc(-c3cccc4ccccc34)c1)CC2,244,,
O=C1NCN(c2ccccc2)C12CCN(Cc1cc(C(F)(F)F)ccc1-c1cccs1)CC2,1300,,64%
O=C1NCN(c2ccccc2)C12CCN(Cc1ccc(-c3ccc(Br)cc3)o1)CC2,433,,
Cc1cccc(-c2ncccc2CN2CCC3(CC2)C(=O)NCN3c2ccccc2)c1,593,,
O=C1c2ccccc2C(=O)N1Cc1ccc(CN2CCC3(CC2)C(=O)NCN3c2ccccc2)cc1,1900,,
O=C1CCCCN1Cc1ccc(CN2CCC3(CC2)C(=O)NCN3c2ccccc2)cc1,> 10000,0%,
CC(C)(C)OC(=O)n1cccc1-c1ccccc1CN1CCC2(CC1)C(=O)NCN2c1ccccc1,759,,
Cc1cc(N2CNC(=O)C23CCN(Cc2ccccc2-c2ccco2)CC3)cc(C)c1F,155,,
O=C1NCN(c2ccc(F)cc2)C12CCN(Cc1ccccc1-c1ccco1)CC2,8.1,,
O=C1NCN(c2ccccc2)C12CCN(Cc1ccccc1-c1cc3ccccc3s1)CC2,> 10000,15.5%,25%
O=C1NCN(c2ccccc2)C12CCN(Cc1ccccc1Oc1ccccc1)CC2,8.5,,
O=C1NCN(c2cccc(C(F)(F)F)c2)C12CCN(Cc1ccccc1-c1ccco1)CC2,20.1,,
O=C1NCN(c2ccccc2)C12CCN(Cc1ccc(-c3cc(Cl)cc(Cl)c3)cc1)CC2,258,,
